Source: PubChem BioAssay AID2100 (National Center for Advancing Translational Sciences (NCATS), 2009)
The entries are a selection whose mix differs from that of the whole data set. Results filed as inconclusive are left out. A call without a number means that no potency is given here. Some salts and complexes are drawn in separate pieces, as the source files them; their charges need not balance. Calls of active or inactive are those of the source. The call rests on the fitted dose curve; in most records, active means well fitted inhibition curve with a large enough effect; inconclusive means small, poorly fitted or top-dose-only effect, or another doubt; inactive means no such curve, though single readings can be large or run the other way.

molecular target: Lysosomal alpha-glucosidase (Homo sapiens) (UniProt P10253); test: qHTS Assay for Inhibitors and Activators of Human alpha-Glucosidase Cleavage of Glycogen; settings: recombinant GAA, glycogen substrate, Amplex Red glucose oxidase fluorescence; series mostly up to 76.4 µM;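 further: the screen sought inhibitors and activators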
Source text: NIH Chemical Genomics Center [NCGC] NIH Molecular Libraries Probe Production Centers Network [MLPCN] MLPCN Grant: R03 MH084841-01 Assay Submitter (PI): Wei Zheng NCGC Assay Overview: Alpha-glucosidase is responsible for the hydrolysis of terminal, non-reducing 1,4-linked alpha-D-glucose residues, which releases alpha-D-glucose. It is a lysosomal hydrolase that is required for the degradation of a small percentage (1-3%) of cellular glycogen in humans. Deficiency of this enzyme results in glycogen-storage disease type II (GSDII), also referred to as Pompe disease, an autosomal recessive disorder. Structurally normal glycogen is accumulated in the lysosomes and cytoplasm in affected patients, primarily in muscle tissues. Excessive glycogen storage within lysosomes may interrupt normal functioning of other organelles and leads to cellular injury. In turn, this leads to enlargement and dysfunction of the entire organ involved (eg: cardiomyopathy and muscle weakness). It has been reported that the improper folding and trafficking of alpha-glucosidase resulting from genetic mutations may account for a significant number of Pompe patients. […] We optimized this alpha-glucosidase assay in 1536-well plate format for identification of novel small molecule inhibitors or activators with structures other than the sugar analogs in order to develop new pharmacological chaperones. Previous assays of alpha-Glucosidase have utilized a non-natural fluorescent substrate to probe enzyme activity. The present assay measures enzyme activity on glycogen using a coupled-assay system to glucose oxidase.
NCGC Assay Protocol Summary: This is an enzyme assay using glycogen from bovine liver (Sigma catalog #: G0885) as the substrate and recombinant human alpha-glucosidase as the enzyme preparation. Upon hydrolysis of the substrate, the glucose product can be detected using the Amplex Red Glucose Oxidase Assay Kit (Invitrogen catalog #: A22189). The product of this reaction can be read with a fluorescence plate reader with an excitation at 573 nm and an emission at 610 nm. Data were normalized to the controls for basal activity (without enzyme) and 100% activity (with enzyme). The AC50 values were determined from concentration-response data modeled with the standard Hill equation. Assay buffer for enzyme reaction: 50 mM citric acid (titrated with potassium phosphate to pH 5.0), 0.01% Tween-20 (pH 5.0 is an optimal condition for this enzyme assay) Assay buffer for Amplex Red reaction: Tris-HCl, pH 7.5 1536-well assay protocol for the alpha-glucosidase assay: (1) Add 2 ul/well alpha-glucosidase enzyme solution (4 nM final) (2) Add 23 nL compounds in DMSO solution. The final titration was 0.7 nM to 77 uM. (3) Add 1 ul of glycogen substrate solution (30 ug) (4) Incubate at 37 C for 40 min (5) Add 2 ul tris-HCl buffer with Amplex Red reagents (6) Incubate 45 min at room temperature. (7) Detect the assay plate in a ViewLux plate reader (PerkinElmer) with Ex=573 nm and Em=610nm. Keywords: Alpha-glucosidase, Pompe Disease, pharmacological chaperone, chaperone therapy, high throughput screening, alpha-glucosidase inhibitor, MLSMR, MLSCN, NIH Roadmap, qHTS and NCGC
Potency means the concentration at half of the fitted maximal effect.

SMILES	Potency
N#Cc1ccc(C(=O)NCC2(N3CCCCC3)CCCCC2)cc1	inactive
O=C(NCC1(N2CCOCC2)CCCCC1)c1ccccc1[N+](=O)[O-]	inactive
O=C(NCC1(N2CCOCC2)CCCCC1)c1ccc([N+](=O)[O-])cc1	inactive
CC(C)(C)OC(=O)N1CCC(N(C(=O)c2ccccc2)c2ccc(Cl)cc2)CC1	inactive
CCOC(=O)C(CC)C1=NC(C)(C)Cc2ccccc21.O=[N+]([O-])c1cc([N+](=O)[O-])c(O)c([N+](=O)[O-])c1 (stereo not drawn)	inactive
CN(C)C1(CNC(=O)c2cccc(C#N)c2)CCCCC1	inactive
O=C(NCC1(N2CCOCC2)CCCCC1)c1ccccc1	inactive
CCCN1CCC(Nc2cc(OC)cc(OC)c2)CC1	inactive
c1ccc(CN2CCC(Nc3ccccc3)CC2)cc1	inactive
COc1ccc(C(=O)NCC2(N3CCOCC3)CCCCC2)cc1OC	inactive
CCOC(=O)N1CCC(Nc2ccc(C)cc2)CC1	inactive
N/C(=N\O)c1c(N)no[n+]1[O-]	inactive
O=C(O)c1cccc(Nc2c([N+](=O)[O-])cc([N+](=O)[O-])cc2[N+](=O)[O-])c1	inactive
O=C(OC1CN2CCC1CC2)C1c2ccccc2C=Cc2ccccc21 (stereo not drawn)	inactive
CN1CCC(Nc2ccc(F)c(Cl)c2)CC1	inactive
CCOc1ncccc1C(=O)NCC1(N2CCOCC2)CCCCC1	inactive
O=C(O)C1(Nc2ccccc2)CCN(Cc2ccccc2)CC1	inactive
CC(C)(C)OC(=O)N1CCC(Nc2ccccc2)CC1	inactive
CCCOc1ccc(C(=O)NCC2(N(C)C)CCCCC2)cc1	inactive
COc1cc(OC)cc(C(=O)NCC2(N3CCOCC3)CCCCC2)c1	inactive
COc1cc(C(=O)NCC2(N3CCOCC3)CCCCC2)cc(OC)c1OC	inactive
COc1cccc(C(=O)N(c2cc(C)cc(C)c2)C2CCN(C(=O)OC(C)(C)C)CC2)c1	inactive
CCC(CO)(C(=O)OC1CN2CCC1CC2)c1ccccc1 (stereo not drawn)	inactive

SMILES	Potency
CN1CCC(Nc2ccc(Cl)cc2)CC1	inactive
CCCOc1ccc(C)cc1CN(CCCl)CCCl	inactive
CN(C)C1(CNC(=O)c2ccc(C(C)(C)C)cc2)CCCCC1	inactive
COc1cc(OC)cc(C(=O)NCC2(N3CCCCC3)CCCCC2)c1	inactive
Fc1ccccc1NC1CCN(Cc2ccccc2)CC1	inactive
CCN1CCC(Nc2cccc(F)c2)CC1	inactive
Cc1ccccc1C(=O)NCC1(N(C)C)CCCCC1	inactive
CN(C)c1ccc(C(=O)NCC2(N3CCCCC3)CCCCC2)cc1	inactive
CC(C)(C)c1ccc(C(=O)NCC2(N3CCOCC3)CCCCC2)cc1	inactive
O=C(NCC1(N2CCOCC2)CCCCC1)c1ccc(Cl)cc1	inactive
CCOc1ccc(C)cc1CN(CCCl)CCCl	inactive
COc1ccccc1C(=O)NCC1(N2CCOCC2)CCCCC1	inactive
COc1ccc(NC2CCN(CCc3ccccc3)CC2)c(OC)c1	active: 7.88 µM
CCOC(=O)N1CCC(Nc2ccc(F)cc2)CC1	inactive
O=C(NCC1(N2CCCCC2)CCCCC1)c1ccc(F)cc1	inactive
Cc1ccc(OCC(C)C)c(CN(CCCl)CCCl)c1	inactive
COc1cc(C(=O)NCC2(N(C)C)CCCCC2)ccc1OC(F)F	inactive
CC(C)(C)OC(=O)N1CCC(N(C(=O)c2ccccc2)c2ccc(F)cc2)CC1	inactive
COc1ccc(C(=O)NCC2(N3CCCCC3)CCCCC2)c(OC)c1OC	inactive
COc1ccc(C(=O)NCC2(N3CCCCC3)CCCCC2)cc1	inactive
O=C(NCC1(N2CCCCC2)CCCCC1)c1ccc(=O)[nH]c1	inactive
Cc1cc(C)cc(N(C(=O)c2ccccc2)C2CCN(C(=O)OC(C)(C)C)CC2)c1	inactive
O=C(NCC1(N2CCOCC2)CCCCC1)c1cc2ccccc2o1	inactive

SMILES	Potency
O=C(OC1CN2CCC1CC2)C1c2ccccc2Oc2ccccc21 (stereo not drawn)	inactive
N#CC1(Nc2ccccc2)CCN(Cc2ccccc2)CC1	inactive
CCOC(=O)N1CCC(Nc2ccc(OC)cc2)CC1	inactive
CC(C)c1ccc(NC2CCN(C(=O)OC(C)(C)C)CC2)cc1	inactive
CN(C)c1cccc(C(=O)NCC2(N3CCCCC3)CCCCC2)c1	inactive
COc1ccc(CN(CCCl)CCCl)cc1Cl	inactive
COc1cc(OC)c(C(=O)NCC2(N(C)C)CCCCC2)cc1OC	inactive
O=C(OC1CN2CCC1CC2)c1ccc([N+](=O)[O-])cc1 (stereo not drawn)	inactive
COc1ccc2c(c1O)-c1c(O)c(OC)cc3c1[C@H](C2)[N+](C)(C)CC3.O=[N+]([O-])c1cc([N+](=O)[O-])c([O-])c([N+](=O)[O-])c1[O-]	inactive
CCCOc1ccc(C(=O)NCC2(N(C)C)CCCCC2)cc1OC	inactive
O=C(NCC1(N2CCOCC2)CCCCC1)c1ccccc1Br	inactive
CCCCOc1ccccc1C(=O)NCC1(N2CCOCC2)CCCCC1	inactive
N#CC1(Nc2ccccc2)CCN(CCc2ccccc2)CC1	inactive
CCOc1ccc(C(=O)NCC2(N3CCOCC3)CCCCC2)cc1	inactive
O=C(NCC1(N2CCCCC2)CCCCC1)c1cccc([N+](=O)[O-])c1	inactive
O=[N+]([O-])c1cc([N+](=O)[O-])c(NCC2CCS(=O)(=O)C2)c([N+](=O)[O-])c1 (stereo not drawn)	inactive
CCCOc1cccc(C(=O)NCC2(N3CCOCC3)CCCCC2)c1	inactive
O=C(NCC1(N2CCCCC2)CCCCC1)c1cccc(C(F)(F)F)c1	inactive
COc1cc(C(=O)NCC2(N3CCCCC3)CCCCC2)ccc1OC(F)F	inactive
O=C(NCC1(N2CCOCC2)CCCCC1)c1cc(=O)[nH]c2ccccc12	inactive
CN1CCN(CCOC(=O)C(O)(c2ccccc2)c2ccccc2)CC1	inactive
COc1ccc(NC2CCN(C(=O)OC(C)(C)C)CC2)cc1	inactive
